Source: ChEMBL document CHEMBL5108052, “Histone Deacetylase and Enhancer of Zeste Homologue 2 Dual Inhibitors Presenting a Synergistic Effect for the Treatment of Hematological Malignancies” (J Med Chem, 2022)

The chains behind the UniProt entries cited, without tags or fusion partners.
UniProt Q15910, whole entry: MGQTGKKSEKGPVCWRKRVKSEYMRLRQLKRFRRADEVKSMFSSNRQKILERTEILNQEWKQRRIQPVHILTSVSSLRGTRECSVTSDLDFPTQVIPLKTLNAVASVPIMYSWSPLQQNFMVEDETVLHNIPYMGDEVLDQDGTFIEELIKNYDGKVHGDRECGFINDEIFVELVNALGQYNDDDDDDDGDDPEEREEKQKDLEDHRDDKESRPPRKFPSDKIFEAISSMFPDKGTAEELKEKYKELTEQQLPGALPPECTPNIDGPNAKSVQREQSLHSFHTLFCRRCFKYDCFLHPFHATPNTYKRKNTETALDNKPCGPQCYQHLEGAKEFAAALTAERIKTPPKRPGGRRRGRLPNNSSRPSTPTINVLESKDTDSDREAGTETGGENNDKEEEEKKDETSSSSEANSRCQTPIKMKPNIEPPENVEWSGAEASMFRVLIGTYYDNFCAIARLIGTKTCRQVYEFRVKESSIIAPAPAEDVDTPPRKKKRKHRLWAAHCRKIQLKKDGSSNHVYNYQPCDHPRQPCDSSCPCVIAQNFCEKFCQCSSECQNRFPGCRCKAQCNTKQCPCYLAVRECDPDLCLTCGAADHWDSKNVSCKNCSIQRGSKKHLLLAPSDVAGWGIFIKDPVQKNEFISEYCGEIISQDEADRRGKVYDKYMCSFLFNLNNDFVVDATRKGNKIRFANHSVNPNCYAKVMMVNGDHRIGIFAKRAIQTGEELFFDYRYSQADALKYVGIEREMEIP

Legend:
Homo sapiens = species on record: Homo sapiens; details: time 90.0 sec
[1] = target: Histone-lysine N-methyltransferase EZH2 (Homo sapiens, UniProt Q15910)
HCT-116 = test: cells; details: Homo sapiens, HCT-116, 72 h

SMILES | Ka (Homo sapiens) | IC50 [1] [nM] | IC50 (HCT-116) [nM]
C=C(CCCCCNc1cc(-c2ccc(N3CCN(C(=O)OC(C)(C)C)CC3)nc2)cc(C(=O)NCc2c(C)cc(C)[nH]c2=O)c1C)NO | 5.43 10^5/M/s | – | –
Cc1cc(C)c(CNC(=O)c2cc(-c3ccc(N4CCN(C(C)C)CC4)nc3)cc3c2cnn3C(C)C)c(=O)[nH]1 | 6.43 10^5/M/s | 30 | –
Cc1cc(C)c(CNC(=O)c2cc(-c3ccc(N4CCN(C(=O)OC(C)(C)C)CC4)nc3)cc(NCCCCCCCC(=O)NO)c2C)c(=O)[nH]1 | 7.25 10^4/M/s | – | –
CC[C@@H](C)n1cc(C)c2c(C(=O)NCc3c(C)cc(C)[nH]c3=O)cc(-c3ccc(N4CCN(CCCCCCCCC(=O)NO)CC4)nc3)cc21 | 1.04 10^5/M/s | – | –
Cc1cc(C)c(CNC(=O)c2cc(-c3ccc(N4CCN(C(=O)OC(C)(C)C)CC4)nc3)cc(NCCCCC(=O)NO)c2C)c(=O)[nH]1 | 2.02 10^5/M/s | – | –
Cc1cc(C)c(CNC(=O)c2cc(-c3ccc(NC(=O)CCCCCCC(=O)NO)cc3)cc3c2cnn3C(C)C)c(=O)[nH]1 | 1.19 10^5/M/s | – | –
Cc1cc(C)c(CNC(=O)c2cc(-c3ccc(N4CCN(C(=O)OC(C)(C)C)CC4)nc3)cc(NCCCCCCC(=O)NO)c2C)c(=O)[nH]1 | 1.75 10^4/M/s | – | –
CCN(c1cc(-c2ccc(N3CCN(c4ncc(C(=O)NO)cn4)CC3)nc2)cc(C(=O)NCc2c(C)cc(C)[nH]c2=O)c1C)C1CCOCC1 | 8.71 10^4/M/s | – | –
Cc1cc(C)c(CNC(=O)c2cc(-c3ccc(N4CCN(CCCCCCCCC(=O)NO)CC4)nc3)cc3c2cnn3C(C)C)c(=O)[nH]1 | 4.83 10^5/M/s | – | –
Cc1cc(C)c(CNC(=O)c2cc(-c3ccc(N4CCN(Cc5ccc(C(=O)NO)cc5)CC4)nc3)cc3c2cnn3C(C)C)c(=O)[nH]1 | 1.16 10^5/M/s | – | > 20000
Cc1cc(C)c(CNC(=O)c2cc(-c3ccc(N4CCN(C(=O)CCCCCCC(=O)NO)CC4)nc3)cc3c2cnn3C(C)C)c(=O)[nH]1 | 2.72 10^5/M/s | – | –
CCN(c1cc(-c2ccc(N3CCN(CCCCCCCCC(=O)NO)CC3)nc2)cc(C(=O)NCc2c(C)cc(C)[nH]c2=O)c1C)C1CCOCC1 | 1.01 10^5/M/s | – | –
Cc1cc(C)c(CNC(=O)c2cc(-c3ccc(N4CCN(Cc5ccc(C(=O)NO)o5)CC4)nc3)cc3c2cnn3C(C)C)c(=O)[nH]1 | 1.03 10^5/M/s | – | –
CC[C@@H](C)n1cc(C)c2c(C(=O)NCc3c(C)cc(C)[nH]c3=O)cc(-c3ccc(N4CCN(c5ncc(C(=O)NO)cn5)CC4)nc3)cc21 | 2.66 10^5/M/s | – | –
